Results: article PMC4216111, “The Bile Acid-Sensitive Ion Channel (BASIC) Is Activated by Alterations of Its Membrane Environment” (PLoS ONE, 2014)

Sequences of proteins named here, by UniProt entry; tags and fusion partners are left off. A change or cut given only in a name is not applied to a line headed by its entry.
UniProt Q9R0W5: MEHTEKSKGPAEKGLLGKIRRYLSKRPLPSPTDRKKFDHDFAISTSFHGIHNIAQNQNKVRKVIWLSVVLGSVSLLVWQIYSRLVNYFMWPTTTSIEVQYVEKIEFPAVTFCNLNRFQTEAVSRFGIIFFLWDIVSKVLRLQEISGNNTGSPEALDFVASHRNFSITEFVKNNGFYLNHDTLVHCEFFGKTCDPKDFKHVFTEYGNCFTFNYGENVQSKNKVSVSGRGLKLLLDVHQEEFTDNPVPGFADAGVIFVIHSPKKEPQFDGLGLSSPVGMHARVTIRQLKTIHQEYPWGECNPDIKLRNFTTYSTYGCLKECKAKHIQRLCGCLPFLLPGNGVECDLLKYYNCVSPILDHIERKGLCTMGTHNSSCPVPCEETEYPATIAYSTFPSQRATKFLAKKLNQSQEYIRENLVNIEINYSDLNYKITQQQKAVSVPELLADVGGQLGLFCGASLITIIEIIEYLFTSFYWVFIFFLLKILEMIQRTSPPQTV

Tests used:
mouse BASIC = assay: Two-electrode voltage clamp, oocytes expressing mouse BASIC; conditions: 2 mM UDCA, 500 µM CPZ, 10 mM TNP, 100 µM Triton-X 100, 500 µM NL, 400 µM SDS; n = 8
rat BASIC = rat BASIC (Rattus norvegicus, UniProt Q9R0W5); assay: Two-electrode voltage clamp, Xenopus laevis oocytes expressing rat BASIC; conditions: 10 mM TNP co-applied with 2 mM UDCA, n = 10
non-injected oocytes = assay: Two-electrode voltage clamp, non-injected control oocytes

2,3,6 Trinitrophenol
activity of mouse BASIC, normalized to the amiloride-sensitive current (mouse BASIC): 0.6 fold
current amplitude (rat BASIC): 12.1±2.5 µA
response of non-injected control oocytes (non-injected oocytes): did not respond
